Experimental findings from PubChem BioAssay AID602162 (NMMLSC, 2011) are described below.

Protein sequences, listed by entry. Tags and fused reporters are not part of them.
UniProt Q9NP58, whole entry: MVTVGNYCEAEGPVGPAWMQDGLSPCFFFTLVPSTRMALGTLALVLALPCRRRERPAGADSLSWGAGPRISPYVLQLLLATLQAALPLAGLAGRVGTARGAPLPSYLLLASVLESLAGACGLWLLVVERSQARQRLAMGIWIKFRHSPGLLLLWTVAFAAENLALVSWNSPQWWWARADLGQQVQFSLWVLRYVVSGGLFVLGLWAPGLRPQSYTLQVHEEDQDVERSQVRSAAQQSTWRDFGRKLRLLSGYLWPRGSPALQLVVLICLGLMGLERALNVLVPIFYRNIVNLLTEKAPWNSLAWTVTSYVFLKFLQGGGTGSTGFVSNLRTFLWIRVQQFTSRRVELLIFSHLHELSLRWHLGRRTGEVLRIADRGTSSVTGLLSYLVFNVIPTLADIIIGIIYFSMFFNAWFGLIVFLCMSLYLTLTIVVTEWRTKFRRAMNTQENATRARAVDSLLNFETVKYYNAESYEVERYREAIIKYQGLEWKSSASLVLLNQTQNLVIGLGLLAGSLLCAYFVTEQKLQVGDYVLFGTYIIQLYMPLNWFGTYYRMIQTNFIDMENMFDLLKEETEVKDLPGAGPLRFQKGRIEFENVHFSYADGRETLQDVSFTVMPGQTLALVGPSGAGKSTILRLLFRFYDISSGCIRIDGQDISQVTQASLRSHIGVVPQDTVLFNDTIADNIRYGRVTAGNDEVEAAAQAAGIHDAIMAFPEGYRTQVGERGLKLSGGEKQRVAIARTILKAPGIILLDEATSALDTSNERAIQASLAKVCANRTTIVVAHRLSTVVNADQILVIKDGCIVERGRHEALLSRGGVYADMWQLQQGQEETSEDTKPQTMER

Structures are written as SMILES. The list shows a part of the results, in another mix than the full data. Activity calls are given as the source filed them.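 The calls were made as follows: active = fluorescence ratio to DMSO below 75%, the collection mean minus 3 SD; inconclusive = too few cells collected in the well; inactive = the rest.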

For this test, the target named is ATP-binding cassette sub-family B member 6 (Homo sapiens) (UniProt Q9NP58). The test is described as follows: blockers of ABCB6-driven porphyrin uptake – K562-ABCB6 cells, flow cytometry, MLPCN library, primary screen (AID 602162).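 Also: signal is porphyrin accumulated inside mitochondria; 100% equals median channel fluorescence of DMSO control wells; lower ratio means ABCB6 inhibition with less porphyrin fluorescence.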 The following applies: K562-ABCB6 porphyrin accumulation, 1 h, at 10 µM, hits give low values. For orientation: In flow cytometry, cells or beads pass a laser one at a time.
As for `O=[N+]([O-])c1cc([N+](=O)[O-])c(Nc2ccccn2)c([N+](=O)[O-])c1`, the fluorescence ratio to DMSO was inactive: 101%.
